Assay results reported in PubChem BioAssay (Tox21).
Values joined by “and” are separate entries in the source; they are usually repeats but may differ in a detail not shown here. Equal values may be shown once. The source calls these results inconclusive, neither active nor inactive. Unless noted, calls follow the shape of the dose curve; as a rule, active = well fitted curve in the direction sought with a large enough effect in the repeat runs; inconclusive = weak or mixed curves; inactive = no such curve, though single readings can be large; an effect the other way counts as inactive or inconclusive.

By UniProt entry, the sequences of proteins in these tests, tags left out. Where a name states a change or a piece, a line headed by the entry shows the natural chain unless it says otherwise.
UniProt P08659, whole entry, looked up: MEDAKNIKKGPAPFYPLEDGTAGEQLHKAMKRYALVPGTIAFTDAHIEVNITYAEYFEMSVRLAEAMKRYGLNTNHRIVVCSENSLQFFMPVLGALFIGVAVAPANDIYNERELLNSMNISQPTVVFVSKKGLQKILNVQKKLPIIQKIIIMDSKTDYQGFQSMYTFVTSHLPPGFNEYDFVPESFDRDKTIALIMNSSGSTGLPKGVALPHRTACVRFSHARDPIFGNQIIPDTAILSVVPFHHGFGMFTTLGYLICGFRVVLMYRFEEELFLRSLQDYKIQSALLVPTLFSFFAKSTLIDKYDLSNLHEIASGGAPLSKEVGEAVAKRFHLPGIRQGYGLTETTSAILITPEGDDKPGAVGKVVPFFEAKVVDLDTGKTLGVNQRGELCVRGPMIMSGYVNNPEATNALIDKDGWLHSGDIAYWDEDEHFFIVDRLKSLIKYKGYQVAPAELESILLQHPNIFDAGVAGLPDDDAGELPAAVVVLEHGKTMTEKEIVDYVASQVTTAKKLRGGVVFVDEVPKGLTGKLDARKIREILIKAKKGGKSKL
UniProt P16473, whole entry, looked up: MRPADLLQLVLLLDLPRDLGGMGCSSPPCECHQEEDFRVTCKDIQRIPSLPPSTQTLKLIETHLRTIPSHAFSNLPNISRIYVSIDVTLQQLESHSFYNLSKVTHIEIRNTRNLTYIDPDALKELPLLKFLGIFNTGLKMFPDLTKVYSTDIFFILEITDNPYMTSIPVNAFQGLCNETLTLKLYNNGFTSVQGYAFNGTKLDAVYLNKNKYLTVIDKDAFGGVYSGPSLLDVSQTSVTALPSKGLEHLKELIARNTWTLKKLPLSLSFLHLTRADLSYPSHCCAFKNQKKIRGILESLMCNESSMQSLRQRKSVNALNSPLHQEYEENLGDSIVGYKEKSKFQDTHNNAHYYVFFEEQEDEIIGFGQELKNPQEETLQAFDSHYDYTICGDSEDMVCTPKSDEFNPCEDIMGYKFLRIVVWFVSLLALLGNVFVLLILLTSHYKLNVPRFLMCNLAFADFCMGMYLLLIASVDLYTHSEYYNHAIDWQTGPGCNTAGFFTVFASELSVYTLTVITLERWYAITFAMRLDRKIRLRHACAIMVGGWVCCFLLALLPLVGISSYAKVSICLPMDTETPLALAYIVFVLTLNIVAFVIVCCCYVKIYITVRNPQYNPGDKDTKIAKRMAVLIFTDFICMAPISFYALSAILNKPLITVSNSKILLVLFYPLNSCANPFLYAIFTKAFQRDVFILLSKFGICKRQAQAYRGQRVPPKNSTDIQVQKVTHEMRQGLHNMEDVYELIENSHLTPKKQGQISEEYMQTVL
UniProt Q92731, whole entry, looked up: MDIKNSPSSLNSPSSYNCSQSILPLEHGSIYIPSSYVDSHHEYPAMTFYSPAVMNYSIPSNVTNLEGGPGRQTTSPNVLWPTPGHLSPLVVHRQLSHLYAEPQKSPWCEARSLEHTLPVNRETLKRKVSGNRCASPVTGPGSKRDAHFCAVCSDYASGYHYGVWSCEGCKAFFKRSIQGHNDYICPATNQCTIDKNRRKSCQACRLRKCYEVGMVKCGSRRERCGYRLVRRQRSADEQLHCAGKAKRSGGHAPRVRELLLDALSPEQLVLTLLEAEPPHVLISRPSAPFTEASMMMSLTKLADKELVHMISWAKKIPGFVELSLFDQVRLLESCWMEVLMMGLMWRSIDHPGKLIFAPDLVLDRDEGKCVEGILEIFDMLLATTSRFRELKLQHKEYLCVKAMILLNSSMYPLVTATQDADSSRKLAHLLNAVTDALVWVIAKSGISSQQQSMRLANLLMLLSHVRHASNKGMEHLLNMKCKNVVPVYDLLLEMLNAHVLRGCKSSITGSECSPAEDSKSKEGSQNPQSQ
UniProt P06401: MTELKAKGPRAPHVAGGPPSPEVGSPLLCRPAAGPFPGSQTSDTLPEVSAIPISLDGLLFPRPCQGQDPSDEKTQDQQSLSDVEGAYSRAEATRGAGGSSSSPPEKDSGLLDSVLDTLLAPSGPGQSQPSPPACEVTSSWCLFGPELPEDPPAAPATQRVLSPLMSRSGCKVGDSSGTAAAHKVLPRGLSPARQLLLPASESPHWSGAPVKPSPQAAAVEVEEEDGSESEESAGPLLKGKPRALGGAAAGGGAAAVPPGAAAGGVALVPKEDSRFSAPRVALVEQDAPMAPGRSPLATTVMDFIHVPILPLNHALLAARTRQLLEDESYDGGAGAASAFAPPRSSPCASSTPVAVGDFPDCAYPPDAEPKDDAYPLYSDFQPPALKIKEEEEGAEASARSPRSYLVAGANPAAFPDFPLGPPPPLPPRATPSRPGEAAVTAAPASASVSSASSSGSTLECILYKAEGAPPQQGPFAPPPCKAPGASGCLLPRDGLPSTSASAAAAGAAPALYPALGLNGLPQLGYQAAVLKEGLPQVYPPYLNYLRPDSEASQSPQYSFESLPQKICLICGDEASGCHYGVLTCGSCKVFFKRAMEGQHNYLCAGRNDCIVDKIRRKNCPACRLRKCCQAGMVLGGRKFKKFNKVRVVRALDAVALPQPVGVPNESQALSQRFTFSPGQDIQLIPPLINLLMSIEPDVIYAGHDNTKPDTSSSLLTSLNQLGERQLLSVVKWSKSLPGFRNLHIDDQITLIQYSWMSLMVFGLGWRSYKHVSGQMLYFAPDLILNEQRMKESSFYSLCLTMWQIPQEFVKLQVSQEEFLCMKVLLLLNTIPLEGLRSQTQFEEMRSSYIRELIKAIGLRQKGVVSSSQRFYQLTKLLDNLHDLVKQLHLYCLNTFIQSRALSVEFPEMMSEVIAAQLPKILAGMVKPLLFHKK
UniProt P10635, whole entry, looked up: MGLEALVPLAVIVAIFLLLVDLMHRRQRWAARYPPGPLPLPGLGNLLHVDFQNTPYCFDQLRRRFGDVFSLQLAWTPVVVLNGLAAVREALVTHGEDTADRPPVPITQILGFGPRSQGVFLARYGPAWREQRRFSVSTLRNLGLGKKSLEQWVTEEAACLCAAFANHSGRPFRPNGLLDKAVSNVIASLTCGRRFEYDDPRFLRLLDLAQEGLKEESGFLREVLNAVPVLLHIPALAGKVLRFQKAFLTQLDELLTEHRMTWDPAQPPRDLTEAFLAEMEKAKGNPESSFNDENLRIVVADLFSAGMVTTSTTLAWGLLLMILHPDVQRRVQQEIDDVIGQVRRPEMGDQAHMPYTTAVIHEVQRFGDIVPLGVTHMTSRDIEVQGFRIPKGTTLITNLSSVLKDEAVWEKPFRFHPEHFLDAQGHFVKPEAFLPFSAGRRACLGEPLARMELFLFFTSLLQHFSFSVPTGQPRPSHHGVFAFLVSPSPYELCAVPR
UniProt P05177, whole entry, looked up: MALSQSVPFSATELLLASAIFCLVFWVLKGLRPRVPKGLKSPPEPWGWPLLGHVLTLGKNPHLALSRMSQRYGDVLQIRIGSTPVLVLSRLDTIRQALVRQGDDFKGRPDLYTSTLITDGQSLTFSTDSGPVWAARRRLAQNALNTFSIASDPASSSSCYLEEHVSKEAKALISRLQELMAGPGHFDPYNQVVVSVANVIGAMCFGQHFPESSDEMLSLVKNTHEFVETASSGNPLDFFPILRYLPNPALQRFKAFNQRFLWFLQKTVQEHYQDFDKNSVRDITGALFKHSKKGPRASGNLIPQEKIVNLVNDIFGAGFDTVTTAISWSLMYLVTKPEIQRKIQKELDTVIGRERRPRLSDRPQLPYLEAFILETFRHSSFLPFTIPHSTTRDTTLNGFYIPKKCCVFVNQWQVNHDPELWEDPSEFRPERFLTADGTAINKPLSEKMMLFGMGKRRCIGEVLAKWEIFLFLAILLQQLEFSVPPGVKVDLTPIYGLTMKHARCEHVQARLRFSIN

What was measured:
[1] = target: Luciferin 4-monooxygenase (Photinus pyralis) (UniProt P08659); test: qHTS assay to identify small molecule inhibitors of firefly luciferase (AID 1224835); also: potency is read from the fitted curve at half-maximal effect; nearly all actives have a fitted effect of over 25% in size; details: purified P. pyralis luciferase, luminescence inhibition
Method in brief: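 Quantitative HTS format; KM concentrations of both substrates. Purified P. pyralis FLuc activity quantified from luminescence images.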

[2] = target: Thyrotropin receptor (Homo sapiens) (UniProt P16473); test: qHTS assay to identify small molecule agonists of the thyroid stimulating hormone receptor (TSHR) signaling pathway (AID 1224843; calls by dose curve; also: % is scaled to controls: 0 for no effect and ±100 for the full control effect; nearly all actives have a fitted effect of over 45% in size); details: TSHR-HEK293 cells, cAMP HTRF, agonist mode, 30 min; activation: at 92.4 µM (top of the series)
[3] = qHTS assay to identify small molecule agonists of the hypoxia (HIF-1) signaling pathway - cell viability counter screen (AID 1224844; calls by dose curve; also: potency is read from the fitted curve at half-maximal effect; nearly all actives have a fitted effect of over 50% in size); details: HRE-bla ME-180 viability, CellTiter-Glo luminescence, 17 h
Method in brief: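 Cells (HRE-bla ME-180, 2,000 per well) sat 5 hrs at 37C, got compound for 17 hrs, were read for CCF4-AM FRET, and were finally lysed with CellTiter-Glo for a 30 min room-temperature luminescence read.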

[4] = qHTS assay to identify small molecule agonists of H2AX (AID 1224845; active = well fitted activation curve with a large enough effect in the signal ratio in the repeat runs, not every such curve was filed as active; inconclusive = weak or mixed curves; the % refers to the signal ratio; also: potency is read from the fitted curve at half-maximal effect); details: CHO-K1 phospho-H2AX Ser139 HTRF, 3 h
Method in brief: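 Wild-type CHO-K1 cells plated overnight, then exposed 3 hr at 37C to compounds at 15 concentrations (0.76% DMSO). Lysed, then HTRF anti-pH2AX(S139)-cryptate/anti-H2AX-d2 detection after 24 hr at room temperature; emissions 665 and 620 nm.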

[5] = qHTS assay to identify small molecule agonists of the hypoxia (HIF-1) signaling pathway (AID 1224846; active = well fitted activation curve with a large enough effect in the signal ratio in the repeat runs, not every such curve was filed as active; inconclusive = weak or mixed curves; the % refers to the signal ratio; also: potency is read from the fitted curve at half-maximal effect); details: HRE-bla ME-180 cells, beta-lactamase ratio, 17 h
Method in brief: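 A low-serum medium (0.5% dialyzed FBS) holding 2,000 HRE-bla ME-180 cells per well is preincubated for 5 hrs, dosed with compounds by pintool, and kept a further 17 hrs at 37C, 5% CO2 before CCF4-AM FRET detection of beta-lactamase.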

[6] = qHTS RealTime-Glo MT Cell Viability Assay in HepG2 cells - 40 hour (AID 1224870); details: RealTime-Glo luminescence; also: potency is read from the fitted curve at half-maximal effect; nearly all actives have a fitted effect of over 50% in size
Method in brief: (§1)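 HepG2 cells mixed with RealTime-Glo MT reagents (NanoLuc plus cell-permeant prosubstrate) were seeded at 600 cells/well, incubated 5 h at 37 C/5% CO2, then pinned with compounds in DMSO; nonlytic luminescence tracked viability during 40 h treatment.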

[7] = qHTS RealTime-Glo MT Cell Viability Assay in HEK293 cells - 16 hour (AID 1224872); details: RealTime-Glo luminescence; also: potency is read from the fitted curve at half-maximal effect; nearly all actives have a fitted effect of over 50% in size
Method in brief: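 Nonlytic real-time viability readout: viable cells convert prosubstrate to NanoLuc substrate, giving luminescence proportional to live cell number. HEK293, 600 cells/well, compound added after 5 h, continuous culture at 37 C.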

[8] = qHTS RealTime-Glo MT Cell Viability Assay in HepG2 cells - 8 hour (AID 1224873); details: RealTime-Glo luminescence; also: potency is read from the fitted curve at half-maximal effect; nearly all actives have a fitted effect of over 55% in size
Method in brief: as §1

[9] = qHTS RealTime-Glo MT Cell Viability Assay in HepG2 cells - 32 hour (AID 1224877); details: RealTime-Glo luminescence; also: potency is read from the fitted curve at half-maximal effect; nearly all actives have a fitted effect of over 55% in size
Method in brief: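 Luminescence read-out: viable HepG2 cells reduce a prosubstrate to a NanoLuc substrate, giving a signal proportional to live cell number. Reads taken at 0, 8, 16, 24, 32 and 40 h of compound exposure at 37 C.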

[10] = A CellTox Green Cytotoxicity Assay to monitor cytotoxicity in HepG2 cells - 24 hour (AID 1224878); details: CellTox Green fluorescence; also: potency is read from the fitted curve at half-maximal effect; nearly all actives have a fitted effect of over 45% in size
Method in brief: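 Using 1536-well format, dye-containing HepG2 suspension was seeded, allowed 5 h at 37 C/5% CO2, dosed by pintool with compounds, positive and negative controls, and imaged for fluorescence across 40 h.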

[11] = qHTS RealTime-Glo MT Cell Viability Assay in HEK293 cells - 8 hour (AID 1224887); details: RealTime-Glo luminescence; also: potency is read from the fitted curve at half-maximal effect; nearly all actives have a fitted effect of over 50% in size
Method in brief: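 Viable HEK293 cells reduce a cell-permeant prosubstrate; the product diffuses out and is consumed by NanoLuc in the medium to give light. Compounds went in after a 5 h incubation and plates were read over the treatment course.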

[12] = target: Estrogen receptor beta (Homo sapiens) (UniProt Q92731); test: qHTS assay to identify small molecule agonists of the estrogen receptor beta (ER-beta) signaling pathway (AID 1259377; active = well fitted activation curve with a large enough effect in the signal ratio in the repeat runs, not every such curve was filed as active; inconclusive = weak or mixed curves, or effect the other way; the % refers to the signal ratio; also: potency is read from the fitted curve at half-maximal effect); details: ER-beta-UAS-bla HEK293T, beta-lactamase FRET ratio, 16 h; activation: at 92.4 µM (top of the series)
[13] = qHTS assay to identify small molecule agonists of the estrogen receptor beta (ER-beta) signaling pathway - cell viability counter screen (AID 1259380); details: ER-beta-bla HEK293T viability, CellTiter-Glo luminescence, 16 h; also: potency is read from the fitted curve at half-maximal effect; nearly all actives have a fitted effect of over 30% in size
Method in brief: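 CellTiter-Glo read, 30 min RT, same wells as bla assay; cells ER-beta-UAS-bla HEK293T; 16 hr compound, 37C; medium 2% charcoal-stripped FBS.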

[14] = target: Progesterone receptor (Homo sapiens) (UniProt P06401); test: qHTS assay to identify small molecule antagonists of the progesterone receptor (PR) signaling pathway (AID 1346795; active = well fitted inhibition curve with a large enough effect in the signal ratio in the repeat runs, not every such curve was filed as active; inconclusive = weak or mixed curves; the % refers to the signal ratio; also: % is scaled to controls: 0 for no effect and ±100 for the full control effect); details: PR-UAS-bla HEK293T, beta-lactamase FRET ratio, 16 h; activity change, negative = inhibition: at 92.4 µM (top of the series)
Method in brief: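 Antagonist mode with agonist R5020 at 1 nM final and 16 hr incubation at 37C. Reporter was beta-lactamase driven by UAS in HEK293T (PR-UAS-bla), 2% charcoal-stripped serum; signal from LiveBLAzer FRET substrate, 2 hr at room temperature.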

[15] = qHTS assay to identify small molecule antagonists of the progesterone receptor (PR) signaling pathway - cell viability counter screen (AID 1346798); details: PR-UAS-bla HEK293T viability, CellTiter-Glo luminescence, 16 h
Method in brief: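 Cytotoxicity read as CellTiter-Glo luminescence (30 min, room temperature) in the same wells as the beta-lactamase readout. HEK293T PR-UAS-bla cells in charcoal-stripped 2% FBS received compound and R5020, then 16 h at 37C, 5% CO2.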

[16] = qHTS assay to identify small molecule antagonists of the TGF-beta/Smad signaling pathway - cell viability counter screen (AID 1346824); details: SBE-bla HEK293T viability, CellTiter-Glo luminescence
Method in brief: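 SBE-bla HEK 293T cells were plated overnight at 37 C, then given compounds in DMSO plus TGF-beta1 (added as 0.25 ng/mL solution) for 5 hr. After the bla read, CellTiter-Glo was added to the same wells and luminescence read after 30 min at room temperature.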

[17] = qHTS assay to identify small molecule agonists of the TGF-beta/Smad signaling pathway - cell viability counter screen (AID 1346829); details: SBE-bla HEK293T viability, CellTiter-Glo luminescence, 5 h; also: potency is read from the fitted curve at half-maximal effect; nearly all actives have a fitted effect of over 45% in size
Method in brief: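 Luminescence from CellTiter-Glo, read after a 30 min room-temperature incubation, gives cell viability of SBE-bla HEK 293T cells treated 5 hr with compounds at 37 C.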

[18] = qHTS assay to identify small molecule agonists of the TGF-beta/Smad signaling pathway (AID 1346859; active = well fitted activation curve with a large enough effect in the signal ratio in the repeat runs, not every such curve was filed as active; inconclusive = weak or mixed curves; the % refers to the signal ratio; also: potency is read from the fitted curve at half-maximal effect); details: SBE-bla HEK293T, TGF-beta/Smad beta-lactamase reporter, 5 h
Method in brief: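 Fluorescence (ex 405 nm; em 460 and 530 nm) was read 2 h after LiveBLAzer FRET substrate at RT. The preceding compound treatment of overnight-plated SBE-bla HEK293T cells lasted 5 h at 37 C.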

[19] = target: Cytochrome P450 2D6 (Homo sapiens) (UniProt P10635); test: Cytochrome P450 Family 2 Subfamily D Member 6 (CYP2D6) small molecule antagonists: luciferase reporter qHTS assay (AID 1671196); details: P450-Glo CYP2D6 enzyme assay, luciferin luminescence, 1 h
Method in brief: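 Each well received CYP2D6 with its proluciferin substrate and chemical, sat 10 min, then got NADPH regeneration solution for 1 h at room temperature. Luminescence in RLU served as the activity measure.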

[20] = target: Cytochrome P450 1A2 (Homo sapiens) (UniProt P05177); test: Cytochrome P450 Family 1 Subfamily A Member 2 (CYP1A2) small molecule antagonists: luciferase reporter qHTS assay (AID 1671199); details: P450-Glo CYP1A2 enzyme, luciferin luminescence, 1 h

Cc1cc([N+](=O)[O-])cc([N+](=O)[O-])c1O
inconclusive: Potency [1] 89.4 µM | activation [2] 1.65% | Potency [3] 4.9 µM | Potency [4] 113 µM | Potency [5] 4.36 µM | Potency [6] 49 µM | Potency [7] 49 µM and 43.6 µM | Potency [8] 49 µM | Potency [9] 49 µM | Potency [10] 49 µM | Potency [11] 43.6 µM | Potency [12] 61.1 µM | Potency [13] 43.3 µM | activity change, negative = inhibition [14] -14.5% | Potency [15] 13.7 µM and 15.3 µM | Potency [16] 21.8 µM | Potency [17] 9.77 µM | Potency [18] 21.9 µM | Potency [19] 28.3 µM | Potency [20] 71 µM
